Measured values: US20060057109A1 (priority 2002, published 2006)

System: caspase 8 and caspase 9 in CPA-treated 9L/P450 cells
Test: Caspase 8 and caspase 9 activity in extracts of CPA-treated cells
Format: cell-based, rat
Details: IAP expressed by retroviral transduction, cells treated with 1 mM CPA
Procedure: 9L/P450 cells were infected with retrovirus encoding the IAPs p35 or Survivin. IAP expression was verified by reverse transcriptase PCR (FIG. 1A). […] Shown in FIG. 1B are the caspase 8 and caspase 9 activities of the individual cell lines (mean+/−half the range for n=2 separate experiments).
Floating and attached cells were collected, pooled, dissolved in lysis buffer (10 mM Hepes buffer (pH 7.4) containing 2 mM EDTA, 0.1% CHAPS detergent, 5 mM DTT, 350 ng/ml PMSF, 10 ng/ml pepstatin A, 10 ng/ml aprotinin, and 20 ng/ml leupeptin) and then subjected to three freeze-thaw cycles. Lysates were spun and the supernatant (cell extract) was assayed for caspase 3, 8 and 9 activities by incubation with caspase form-selective substrates: Ac-DEVD-AMC (Biomol; cat # P-411) for caspase 3 (Talanian et al., J Biol. Chem. 272:9677-9682 (1997); Thomberry et al., J Biol. Chem. 272:17907-17911 (1997)), LETD-AFC (BioRad; cat# 170-3186) for caspase 8 and Ac-LEHD-AFC (BioRad; cat# 170-3190) for caspase 9.

With “hIAP1: human IAP (inhibitor of apoptosis), myc-tagged cDNA, expressed by retroviral transduction” the “inhibition of caspase activity” value was “less effective caspase inhibition”.
